What follows are compounds tested against T1, Opioid receptors; mu & kappa (Homo sapiens) (UniProt P41145+P35372) (assay: Ratio of Ki at mu-opioid receptor to Ki at kappa oioid receptor). Details: Cavia porcellus.

| SMILES | Ratio |
| --- | --- |
| CN(C(=O)COc1cc(Cl)c(Cl)c(Cl)c1)[C@@H]1CCCC[C@H]1N1CCCCCCC1 | 280 |

Each compound was assayed against T1, Opioid receptors; mu & kappa (Homo sapiens) (assay: Ratio of Ki at mu-opioid receptor to Ki at kappa opioid receptor). Details: Cavia porcellus.

| SMILES | Ratio |
| --- | --- |
| CN(C(=O)COc1ccc(Cl)c(Cl)c1)[C@@H]1CCCC[C@H]1N1CCCC1 | 18 |
| CN(C(=O)COc1c(Cl)cccc1Cl)[C@@H]1CCCC[C@H]1N1CCCC1 | 1.9 |
| CN(C(=O)COc1cc(Cl)c(Cl)c(Cl)c1)[C@@H]1CCCC[C@H]1N1CCCC1 | 12 |
| CN(C(=O)COc1cc(Cl)c(Cl)c(Cl)c1Cl)[C@@H]1CCCC[C@H]1N1CCCCCCC1 | 640 |
| Cc1cc(OCC(=O)N(C)[C@@H]2CCCC[C@H]2N2CCCCCC2)cc(C)c1Cl | 120 |
| CN(C(=O)COc1ccc(Cl)cc1)[C@@H]1CCCC[C@H]1N1CCCC1 | 6.7 |
| CN(C(=O)COc1cc(Cl)cc(Cl)c1)[C@@H]1CCCC[C@H]1N1CCCCCC1 | 110 |
| CN(C(=O)COc1cc(Cl)c(Cl)c(Cl)c1Cl)[C@@H]1CCCC[C@H]1N1CCCCCC1 | 110 |

Source: ChEMBL document CHEMBL1124221, “Highly selective kappa opioid analgesics. Synthesis and structure-activity relationships of novel N-[(2-aminocyclohexyl)aryl]acetamide and N-[(2-aminocyclohexyl)aryloxy]acetamide derivatives” (1988)
